Consider four molecules from publication PMC11305387, “AlphaFold accelerated discovery of psychotropic agonists targeting the trace amine–associated receptor 1” (Science Advances, 2024).

Amino acid sequences for entries named in this document (tags omitted).
UniProt Q96RJ0, whole entry: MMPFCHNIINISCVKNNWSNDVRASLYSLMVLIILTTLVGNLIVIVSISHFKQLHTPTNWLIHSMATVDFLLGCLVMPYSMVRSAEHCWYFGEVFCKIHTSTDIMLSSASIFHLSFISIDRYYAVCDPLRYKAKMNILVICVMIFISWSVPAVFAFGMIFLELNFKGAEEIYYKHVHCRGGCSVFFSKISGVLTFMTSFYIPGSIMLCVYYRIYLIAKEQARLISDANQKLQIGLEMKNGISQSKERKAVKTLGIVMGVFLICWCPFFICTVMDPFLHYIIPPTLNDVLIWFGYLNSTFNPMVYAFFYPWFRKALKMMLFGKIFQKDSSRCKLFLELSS

The term pEC50 denotes −log10 of the EC50, conventionally taken in molar units. Read a high pEC50 as a low EC50.

Structures are written as SMILES. Read-outs that look alike come from different tables or passages of the source.

The assay concerns the target human TAAR1 (Homo sapiens, UniProt Q96RJ0). Put plainly: G protein (mini-Gs) recruitment luminescence complementation assay, agonist mode. It counts as cell-based.

`CC1=C(c2cnco2)CNCC1` registered a pEC50 of 5.8.
Still for that read-out and setting: under `c1cc(C2CNCCO2)co1` (stereo not shown) stands 6.7.
The molecule `C1=C(c2ccoc2)CNCC1` had a pEC50 (tested form: HCl) of 7.5.
On to `CC1=C(c2cocn2)CNCC1`, for which the pEC50 is 6.2.
